Sequences of proteins named here, by UniProt entry; tags and fusion partners are left off. A line that says so, or that is headed by a name, gives the form on record, which may keep a tag or linker.
UniProt Q96S37, with tags, fused parts or gaps: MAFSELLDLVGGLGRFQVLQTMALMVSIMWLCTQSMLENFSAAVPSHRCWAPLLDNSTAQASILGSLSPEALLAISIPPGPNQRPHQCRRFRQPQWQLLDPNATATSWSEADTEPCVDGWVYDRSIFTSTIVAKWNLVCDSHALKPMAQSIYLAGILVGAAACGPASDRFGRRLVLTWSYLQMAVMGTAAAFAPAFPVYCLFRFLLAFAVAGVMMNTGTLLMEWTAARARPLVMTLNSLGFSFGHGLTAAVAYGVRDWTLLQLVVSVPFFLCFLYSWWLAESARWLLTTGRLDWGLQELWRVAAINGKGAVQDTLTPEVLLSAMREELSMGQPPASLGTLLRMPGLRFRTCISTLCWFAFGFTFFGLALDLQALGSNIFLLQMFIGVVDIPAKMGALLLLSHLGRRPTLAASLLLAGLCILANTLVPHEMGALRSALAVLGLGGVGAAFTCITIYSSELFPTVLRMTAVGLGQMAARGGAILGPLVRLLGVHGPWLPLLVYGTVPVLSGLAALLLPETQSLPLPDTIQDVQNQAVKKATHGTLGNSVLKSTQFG

In article PMC5048659, “Lesinurad, a novel, oral compound for gout, acts to decrease serum uric acid through inhibition of urate transporters in the kidney” (Arthritis Research & Therapy, 2016):

What was measured:
URAT1 = URAT1 (Homo sapiens, UniProt Q96S37); experiment: cell-based
OAT4 = molecular target: T1, OAT4 (Homo sapiens, UniProt Q9NSA0); experiment: OAT4 urate transport assay in stably transfected HEK293 cells; type: cell-based; conditions: 100 μM 14C-urate, 10 min, OAT4-551G cells; mean ± SEM, three experiments; read-out: Potency (IC50) against OAT4
T1 sequence (Q9NSA0 with tags, fused parts or gaps): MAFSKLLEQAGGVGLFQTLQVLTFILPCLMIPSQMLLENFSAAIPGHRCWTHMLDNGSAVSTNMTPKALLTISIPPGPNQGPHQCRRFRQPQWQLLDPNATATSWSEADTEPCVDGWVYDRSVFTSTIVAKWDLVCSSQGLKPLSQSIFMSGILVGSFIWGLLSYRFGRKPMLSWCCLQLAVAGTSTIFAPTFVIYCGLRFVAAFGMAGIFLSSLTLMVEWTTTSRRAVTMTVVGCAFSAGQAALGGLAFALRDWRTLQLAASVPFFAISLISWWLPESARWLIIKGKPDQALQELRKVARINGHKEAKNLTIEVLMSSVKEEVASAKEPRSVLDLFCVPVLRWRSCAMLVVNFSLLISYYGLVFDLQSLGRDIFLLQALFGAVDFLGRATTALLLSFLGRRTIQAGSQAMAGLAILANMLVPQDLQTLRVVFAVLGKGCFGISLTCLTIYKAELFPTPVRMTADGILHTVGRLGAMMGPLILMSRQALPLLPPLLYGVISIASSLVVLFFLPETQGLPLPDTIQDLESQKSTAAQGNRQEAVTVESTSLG

## O=C(O)CSc1nnc(Br)n1-c1ccc(C2CC2)c2ccccc12 [Lesinurad, 2-((5-bromo-4-(4-cyclopropylnaphthalen-1-yl)-4H-1,2,4-triazol-3-yl)thio) acetic acid]
URAT1
  IC50: 3.53 ± 0.52 µM
OAT4
  IC50: 2030 ± 660 nM
